Experimental data reported in patent US20200038399A1, “FORMULATIONS, METHODS, KIT, AND DOSAGE FORMS FOR TREATING BACTERIAL INFECTION” (Motif BioSciences Inc., priority 2016, published 2020).

Legend:
[1] = test system: Staphylococcus aureus ATCC 25923; assay: checkerboard synergy assay with iclaprim; conditions: antibiotic in combination with iclaprim; S. aureus 25923
S. aureus 101 = assay: checkerboard synergy assay with iclaprim; format: cell-based, Staphylococcus aureus; conditions: antibiotic in combination with iclaprim
[2] = test system: Streptococcus pneumoniae ATCC 49619; assay: checkerboard synergy assay with iclaprim; conditions: antibiotic in combination with iclaprim; S. pneumoniae 49619
[3] = test system: Haemophilus influenzae ATCC 49766; assay: checkerboard synergy assay with iclaprim; conditions: antibiotic in combination with iclaprim; H. influenzae 49766
[4] = test system: Klebsiella pneumoniae ATCC 33495; assay: checkerboard synergy assay with iclaprim; format: cell-based; conditions: antibiotic in combination with iclaprim; K. pneumoniae 33495
S. pneumoniae 1/1 = assay: checkerboard synergy assay with iclaprim; format: cell-based, Streptococcus pneumoniae; conditions: antibiotic in combination with iclaprim
[5] = test system: Moraxella catarrhalis RA 21; assay: checkerboard synergy assay with iclaprim; conditions: antibiotic in combination with iclaprim; M. catarrhalis RA 21
[6] = cited from earlier work

| SMILES | Σ FIC [1] | Σ FIC (S. aureus 101) | Σ FIC [2] | Σ FIC [3] | Σ FIC [4] | Σ FIC (S. pneumoniae 1/1) | Σ FIC [5] | pKa [6] |
| --- | --- | --- | --- | --- | --- | --- | --- | --- |
| CO[C@H]1/C=C/O[C@@]2(C)Oc3c(C)c(O)c4c(O)c(c(/C=N/N5CCN(C)CC5)c(O)c4c3C2=O)NC(=O)/C(C)=C\C=C\[C@H](C)[C@H](O)[C@@H](C)[C@@H](O)[C@@H](C)[C@H](OC(C)=O)[C@@H]1C [Rifampicin] | 0.54-1.25 | 0.75-1.25 |  |  |  |  |  |  |
| Cc1cc(NS(=O)(=O)c2ccc(N)cc2)no1 [Sulfamethoxazole, N1-(5-methyl-3-isoxazolyl)sulfanilamide] | 0.06-0.53 | 0.19-0.63 | 0.05-0.52 | 0.09-0.52 | 0.51-1.50 | 0.16-0.63 | 0.09-0.56 |  |
| COc1cc(Cc2cnc(N)nc2N)cc(OC)c1OC [Trimethoprim] |  |  |  |  |  |  |  | 7.3 |
